According to patent US12559454B2, “Benzenesulfonamide derivatives and uses thereof” (2692372 Ontario, Inc., priority 2019, dated 2026):
Like-named read-outs stand apart in the source and are kept apart here.

The chains behind the UniProt entries cited, without tags or fusion partners.
UniProt Q06187, whole entry: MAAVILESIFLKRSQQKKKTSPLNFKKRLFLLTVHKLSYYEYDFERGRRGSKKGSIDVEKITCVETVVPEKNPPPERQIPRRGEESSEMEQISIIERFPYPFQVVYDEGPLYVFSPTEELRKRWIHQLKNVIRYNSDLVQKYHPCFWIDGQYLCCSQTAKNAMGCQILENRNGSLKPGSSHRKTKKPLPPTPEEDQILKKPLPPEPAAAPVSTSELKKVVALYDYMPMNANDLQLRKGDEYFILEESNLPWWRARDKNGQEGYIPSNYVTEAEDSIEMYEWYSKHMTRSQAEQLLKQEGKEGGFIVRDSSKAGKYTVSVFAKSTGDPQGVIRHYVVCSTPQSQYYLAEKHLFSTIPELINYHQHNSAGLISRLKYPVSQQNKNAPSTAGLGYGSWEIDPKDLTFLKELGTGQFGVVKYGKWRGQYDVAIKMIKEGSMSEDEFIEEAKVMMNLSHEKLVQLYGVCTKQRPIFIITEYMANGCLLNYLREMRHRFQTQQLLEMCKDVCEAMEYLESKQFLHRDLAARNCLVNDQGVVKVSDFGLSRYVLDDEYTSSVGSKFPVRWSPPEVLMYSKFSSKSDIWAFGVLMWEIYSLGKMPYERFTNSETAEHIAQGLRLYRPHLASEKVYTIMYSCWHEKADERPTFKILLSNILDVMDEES

Columns and labels:
BTK = BTK (Homo sapiens, UniProt Q06187); assay: In vitro BTK inhibition (no preincubation); assay type: biochemical
[1] = target: BTK protein levels in RAMOS cells (Homo sapiens, UniProt Q06187); assay: Total BTK degradation assay (HTRF) in RAMOS cells; assay type: cell-based

IC50 (BTK; read-out: BTK (IC50), Table 18) | Percent residual BTK after 24 hours with test compound (5 μM) [1] | IC50 (BTK; read-out: BTK (IC50), Table 17) | SMILES
100 to 1000 nM | 63% |  | COCCOc1ccc(Nc2ncc(F)c(Nc3cccc(NS(=O)(=O)c4c(F)c(F)c(F)c(F)c4F)c3)n2)cc1
 |  | 0.1 to 10 nM | Nc1ncnc2c1c(-c1ccc(Oc3ccccc3)cc1)nn2[C@@H]1CCN(S(=O)(=O)c2c(F)c(F)c(F)c(F)c2F)C1
